Data published in patent EP2952518A1, “Organic Phosphonium Salts, a Method for their Preparation, and their Use in Electrochemical Systems” (priority 2014, dated 2015).

What was measured:
[1] = temperature at loss of 10 % of the mass, nitrogen atmosphere, heating rate 5 K/min
[2] = dynamic viscosity of phosphonium salts and mixtures; format: physicochemical

## trimethyl-n-propylphosphonium 1,1,1-trifluoro-N-(trifluoromethylsulfonyl)methane-sulfonamide
[1]
  Thermostability: 414 °C
20 °C
  Conductivity at 20 °C: 0.07 mS/m
50 °C
  Conductivity at 50 °C: 0.673 S/m
60 °C
  Conductivity at 60 °C: 0.913 S/m
70 °C
  Conductivity at 70 °C: 1.173 S/m
80 °C
  Conductivity at 80 °C: 1.461 S/m
[2]; 50 °C
  Viscosity at 50 °C: 25.6 mPa·s
[2]; 60 °C
  Viscosity at 60 °C: 18.9 mPa·s
[2]; 70 °C
  Viscosity at 70 °C: 14.5 mPa·s
[2]; 80 °C
  Viscosity at 80 °C: 11.5 mPa·s
